Drawing on patent US6977259B2, “Quinoline derivatives and their use as aurora 2 kinase inhibitors” (AstraZeneca AB, priority 2000, dated 2005), this text covers IC50 for one molecule.

Amino acid sequences for entries named in this document (tags omitted).
UniProt O14965, whole entry: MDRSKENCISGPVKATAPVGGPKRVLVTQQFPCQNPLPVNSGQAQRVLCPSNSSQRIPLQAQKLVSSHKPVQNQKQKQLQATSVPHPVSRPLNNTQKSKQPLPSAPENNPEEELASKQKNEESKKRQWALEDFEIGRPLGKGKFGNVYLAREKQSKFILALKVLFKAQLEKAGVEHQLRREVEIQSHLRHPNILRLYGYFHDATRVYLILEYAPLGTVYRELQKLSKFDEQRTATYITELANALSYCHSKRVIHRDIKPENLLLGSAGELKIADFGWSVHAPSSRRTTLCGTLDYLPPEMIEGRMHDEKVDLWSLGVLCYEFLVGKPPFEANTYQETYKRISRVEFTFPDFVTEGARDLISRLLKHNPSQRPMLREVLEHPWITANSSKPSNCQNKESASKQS

Assay [1] relates to MCF-7 cells. Description: In vitro cell proliferation assay II (BrdU incorporation). Particulars: read-out: concentration giving 50% inhibition of BrdU incorporation; MCF-7, 48 hours with compound, 2 hour BrdU labelling, ELISA. The source says:
(b) In Vitro Cell Proliferation Assays
These and other assays can be used to determine the ability of a test compound to inhibit the growth of adherent mammalian cell lines, for example the human tumour cell line MCF7.
This assay determines the ability of at test compound to inhibit the incorporation of the thymidine analogue, 5′-bromo-2′-deoxy-uridine (BrdU) into cellular DNA. MCF-7 or other adherent cells were typically seeded at 0.8×10^4 cells per well in DMEM (Sigma Aldrich) without phenol red, plus 10% foetal calf serum, 1% L-glutamine and 1% penicillin/streptomycin (50 μl/well) in 96 well tissue culture treated 96 well plates (Costar) and allowed to adhere overnight. […] The optical density of the wells was then determined at 690 nm wavelength using a Titertek Multiscan plate reader. […]

The target of assay [2] is aurora2 kinase (Homo sapiens, UniProt O14965). Description: In vitro aurora2 kinase inhibition test. Particulars: read-out: concentration giving 50% inhibition of enzyme activity; recombinant tagged aurora2, 33P-ATP, peptide substrate, 60 minutes at room temperature. The source says:
(a) In Vitro Aurora2 Kinase Inhibition Test This assay determines the ability of a test compound to inhibit serine/threonine kinase activity. DNA encoding aurora2 may be obtained by total gene synthesis or by cloning. This DNA may then be expressed in a suitable expression system to obtain polypeptide with serine/threonine kinase activity. In the case of aurora2, the coding sequence was isolated from cDNA by polymerase chain reaction (PCR) and cloned into the BamH1 and Not1 restriction endonuclease sites of the baculovirus expression vector pFastBac HTc (GibcoBRL/Life technologies). The 5′ PCR primer contained a recognition sequence for the restriction endonuclease BamH1 5′ to the aurora2 coding sequence. This allowed the insertion of the aurora2 gene in frame with the 6 histidine residues, spacer region and rTEV protease cleavage site encoded by the pFastBac HTc vector. The 3′ PCR primer replaced the aurora2 stop codon with additional coding sequence followed by a stop codon and a recognition sequence for the restriction endonuclease Not1. This additional coding sequence (5′ […] 3′) encoded for the polypeptide sequence YPYDVPDYAS. This sequence, derived from the influenza hemagglutin protein, is frequently used as a tag epitope sequence that can be identified using specific monoclonal antibodies. […]

For `N#Cc1cc2c(Nc3cnc(NC(=O)c4ccccc4)nc3)ccnc2cc1OCCCN1CCOCC1`, the results for the IC50 in assay [1] and in assay [2] were 360 nM and 52.1 nM, respectively.
